# Laboratory results taken from PubChem BioAssay AID624371 (The Scripps Research Institute Molecular Screening Center, 2012).
# This is a selection; strong and weak results do not stand in their true shares. The source made the active and inactive calls.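 Rule for the calls: active = mean inhibition above the low-control mean inhibition plus three low-control SD (cut at about 11% in these data); inactive = the rest.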
# Experiment: BLA reporter readout interference – cell-based, CHO-K1 CMV-bla, CCF4 FRET, fluorescence, artefact control for NOD2-RIPK2 interaction inhibitor project, confirmation (AID 624371);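 note: 0% = DMSO only wells and 100% = clavulanate high control wells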
# Conditions: CCF4 FRET ratio, counterscreen, at 4.98 µM, stronger effect = higher value
row,Structure (SMILES),inhibition
1,C[N+]1=C2C=CC=CC=C2SC12C([N+](=O)[O-])=CC([N+](=O)[O-])=C[C-]2[N+](=O)[O-] (configuration not stated),inactive: -2.08%
2,CN(C)C(=O)c1cc([N+](=O)[O-])cc2c1-c1c(cc([N+](=O)[O-])cc1[N+](=O)[O-])C2=O,active: 15.7%
